Measurements reported in patent US20240217973A1, “IMIDAZOPYRIDINE COMPOUNDS AND USE THEREOF” (MEDSHINE DISCOVERY INC., priority 2021, published 2024).

Tests used:
[1] = Pharmacokinetic evaluation of compounds in mice; conditions: CD-1 male mice
Description: Experimental purpose: To test the in vivo pharmacokinetic data of compounds in CD-1 mice.
(§1) The compound was mixed with the solvent 5% DMSO/5% Solutol/90% H2O, vortexed and sonicated to prepare a 0.5 mg/mL clear solution. CD-1 male mice aged 7 to 10 weeks were selected, and administered the candidate compound solution intravenously. Whole blood was collected for a certain period of time, and plasma was prepared. The drug concentration was analyzed by LC-MS/MS method, and pharmacokinetic parameters were calculated by Phoenix WinNonlin software (Pharsight Company, USA).
as §1, with “orally.” for “intravenously.”

[2] = test system: plasma proteins; test: Plasma protein binding experiment (PPB), D; conditions: 2 μM, 4 hours dialysis
Description: Experimental operation: 995 μL of blank plasma of each genus was taken, 5 μL of working solution of test compound (400 μM) or working solution of warfarin (400 μM) was added, so that the final concentrations of the test compound and warfarin in the plasma sample was 2 μM. The sample was mixed thoroughly. The final concentration of the organic phase DMSO was 0.5%; 50 μL of plasma samples of the test compound and warfarin were pipetted into the sample receiving plate (three parallels), and the corresponding volume of the corresponding blank plasma or buffer was immediately added so that the final volume of each sample well was 100 μL, with a volume ratio of 1:1 for plasma: dialysis buffer, and then 500 μL of stop solution was added to these samples, and these samples would be used as a T0 sample for the recovery and stability determination. […] All samples were analyzed by LC/MS/MS after protein precipitation, and the protein binding rate and recovery rate were calculated by the formula: % Unbound=100*F/T, % Bound=100−% Unbound, % Recovery 100*(F+T) T0 (where F was the peak area ratio of the compound in the dialysate after 4 hours of dialysis; T was the peak area ratio of the compound in the plasma after 4 hours of dialysis, and T0 was the peak area ratio of the compound in the plasma sample at zero time).

[3] = Pharmacokinetic evaluation of compounds in rats; conditions: SD rats
Description: Experimental purpose: To test the in vivo pharmacokinetic data of compounds in SD rats.
as §1, with “The rats” for “CD-1 male mice aged 7 to 10 weeks”, “were” for “were selected, and”, “calculated.” for “calculated by Phoenix WinNonlin software (Pharsight Company, USA).”
The compound was mixed with the solvent 5% DMSO/5% Solutol/90% H2O, vortexed and sonicated to prepare a 2 mg/mL clear solution. The rats were administered candidate compound solutions orally. Whole blood was collected for a certain period of time, and plasma was prepared. The drug concentration was analyzed by LC-MS/MS method, and pharmacokinetic parameters were calculated.

[4] = Hepatocyte metabolic stability experiment (HMS), R; conditions: R hepatocytes, 1 μM
Description: Experimental operations: 198 μL of hepatocyte suspension (0.51×10^6 cells/mL) was added to the preheated incubation plate, and 198 μL of culture medium without hepatocytes was added to T0-MC and T120-MC incubation plates for the culture medium control group, and all incubation plates were pre-incubated for 10 minutes in a 37° C. incubator. Then 2 μL of the working solution of the test and control compounds were added and mixed well, and the incubation plate was immediately put into the plate shaker in the incubator, the rotation speed was adjusted to about 650 rpm, and the timer and the reaction were started. 2 duplicate samples for each compound were prepared at each time point. Incubation conditions: 37° C., saturated humidity, and containing 5% CO2. In the test system, the final concentration of the test compound was 1 μM, the final concentration of the control compound was 3 μM, the final concentration of hepatocytes was 0.5×10^6 cells/mL, and the final concentration of the total organic solvent was 0.96%, of which the final concentration of DMSO was 0.1%. […] All samples were mixed and analyzed by LC-MS/MS method. […]

[5] = IV, 1.0 mg/kg (002), 1.2 mg/kg (003B)
[6] = PO, 2.9 mg/kg (002), 2.85 mg/kg (003B)
[7] = IV, 1.0 mg/kg (002), 0.85 mg/kg (003B)
[8] = PO, 9.2 mg/kg (002), 8.4 mg/kg (003B)

`Nc1nccc2c1n(-c1ccc(Oc3ccccc3)cc1)c(=O)n2C1CCN(C(=O)/C=C/CF)C1` (single isomer, unassigned) [Compound 003B] showed an AUC0-inf [1, 5] of 445 nM·h, a C0 [1, 5] of 4.24 µM and a Cl [1, 5] of 79 mL/kg/min. For the same compound, the T1/2 [1, 5] was 16.2 min, the Vd [1, 5] was 0.85 L/kg and the AUC0-inf [1, 6] was 602 nM·h. The Cmax [1, 6] was 1000 nM, the F % [1, 6] was 45.1% and the T1/2 [1, 6] was 101 min. For the same compound, the Tmax [1, 6] was 4.98 min, the “Unbound PPB” value [2] was 10.9% and the AUC0-inf [3, 7] was 705 nM·h. For the same compound, the C0 [3, 7] was 2200 nM, the Cl [3, 7] was 50.2 mL/kg/min and the T1/2 [3, 7] was 19.2 min. It also gave a Vd [3, 7] of 1.16 L/kg, an AUC0-inf [3, 8] of 2117 nM·h and a Cmax [3, 8] of 1120 nM. The F % [3, 8] was 30.0%, the T1/2 [3, 8] was 93.6 min and the Tmax [3, 8] was 22.8 min. The “HMS CLint(liver)” value [4] was 297 mL/min/kg.
